From patent publication US9493451B2 (Bionomics Limited, priority 2011, dated 2016)

The chains behind the UniProt entries cited, without tags or fusion partners.
UniProt P22001, whole entry: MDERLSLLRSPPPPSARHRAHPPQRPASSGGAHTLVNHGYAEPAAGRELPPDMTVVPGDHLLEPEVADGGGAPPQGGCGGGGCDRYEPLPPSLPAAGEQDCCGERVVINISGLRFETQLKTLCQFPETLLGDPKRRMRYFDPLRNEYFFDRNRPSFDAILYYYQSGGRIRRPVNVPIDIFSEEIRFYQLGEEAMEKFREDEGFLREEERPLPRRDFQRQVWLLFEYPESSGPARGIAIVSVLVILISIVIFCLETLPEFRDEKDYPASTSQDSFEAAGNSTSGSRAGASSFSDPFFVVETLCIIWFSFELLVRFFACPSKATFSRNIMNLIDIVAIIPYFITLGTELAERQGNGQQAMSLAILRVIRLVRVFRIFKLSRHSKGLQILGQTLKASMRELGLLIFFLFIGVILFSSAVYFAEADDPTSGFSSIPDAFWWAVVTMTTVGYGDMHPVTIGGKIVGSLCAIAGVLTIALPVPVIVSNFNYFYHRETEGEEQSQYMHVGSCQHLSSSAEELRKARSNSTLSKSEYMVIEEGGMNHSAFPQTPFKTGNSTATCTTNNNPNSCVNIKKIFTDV

Molecular target: Kv1.3 (Homo sapiens, UniProt P22001)
Experiment: Electrophysiology: planar patch-clamp of Kv1.3 currents, IC50 from steady state current amplitude
Conditions: read-out: IC50 (Kv1.3 ephys steady state), Kv1.3 electrophysiology, results according to Method D1
Description: The inhibition data shown for the compounds of the list below was calculated using the steady state current amplitude at the end of the depolarising pulse in patch clamp evaluations (as described in the Biology Protocols: 1. Electrophysiology).
Kv1.x currents were measured in Kv1.3/CHO or Kv1.5/CHO cells using a planar electrode version (Nanion Technologies GMBH) of the patch-clamp technique. Whole-cell Kv1.x current transients were evoked by 500 ms depolarising voltage pulses to +40 mV from a holding potential of −80 mV applied at 10 s intervals for Kv1.5 and at 30 s intervals for Kv1.3 to allow adequate time for recovery from inactivation. Cells were continuously bathed in a buffered saline solution containing (mM): 160 NaCl, 4.5 KCl, 2 CaCl2, 1 MgCl2, 5 glucose, 10 HEPES, pH 7.4, 290-310 mOsm·Kg^−1. The internal (pipette) solution contained (mM): 10 NaCl, 70 KF, 75 KCl, 2 MgCl2, 10 HEPES, 10 EGTA, pH 7.2, 290-310 mOsm·Kg^−1. Series resistance compensation (60-80%) was applied to cells in which the peak current amplitude exceeded 2 nA.
Compound Preparation and Potency Assessment
Compounds were initially dissolved in DMSO to 10 mM. […] Compound IC50 values were determined by fitting the average normalised reduction of either the current integral or the steady state current amplitude at the end of the 500 ms depolarising pulse obtained at each compound concentration to the Hill equation. […]

In the case of `CC(C)Cc1noc(C(C)N(Cc2ccc(C(F)(F)F)nc2)C(=O)[C@@H]2C[C@H]2c2ccc(F)cc2)n1` (single isomer, unassigned), the IC50 is reported as 50 to 200 nM.
